# In patent US20260274913A1 (Amgen, published 2026):
# The chains behind the UniProt entries cited, without tags or fusion partners. Residues count along the entry.
# UniProt Q9NP99, 21-205: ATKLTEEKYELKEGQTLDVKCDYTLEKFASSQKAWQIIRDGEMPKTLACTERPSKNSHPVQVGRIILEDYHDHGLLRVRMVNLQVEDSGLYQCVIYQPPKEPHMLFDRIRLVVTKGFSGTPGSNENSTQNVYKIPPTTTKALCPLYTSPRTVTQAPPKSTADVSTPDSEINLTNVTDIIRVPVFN
# UniProt Q9NP99, 21-234 limits assumed: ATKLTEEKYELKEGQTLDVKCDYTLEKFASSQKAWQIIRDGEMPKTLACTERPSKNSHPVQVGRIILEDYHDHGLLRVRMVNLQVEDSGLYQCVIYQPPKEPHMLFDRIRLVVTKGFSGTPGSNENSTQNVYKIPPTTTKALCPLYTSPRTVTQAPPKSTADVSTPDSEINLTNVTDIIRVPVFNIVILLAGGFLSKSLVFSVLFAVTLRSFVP
# B1: 3E12 (antibody, V domains shown)
# VH: QVQLVQSGAEVKKPGASVKVSCKASGYTFNGYYIHWVRQAPGQGLEWMGWLNPNSGGANYAQKFQGWVTMTRDTSISTAYMELSRLTSDDTAVYYCARDQRKTTVTPFEYWGQGTLVTVSS
# VL: SYELTQPPSVSVSPGQTASITCSGDKLGERNVCWYQLKPGQSPILVIYQDNKRPSGIPERFSGSKSGNTAILTISGTQAMDEADYYCQAWDRNVVFGGGTKLTVL
# B2: 30H2 Fab (Fab, V domains shown)
# VH: EVQVLESGGGLVQPGESLRLSCTASGFTFNAYAMSWVRQAPGKGLEWVSTISGSGSTTYYADSVKGRFTISRDNSKNTLDLQMNSLRAADTAVYYCAKVAGSNFFFDHWGQGTLVTVSS
# VL: EIVMTQSPATLSVSPGERATLSCRASQSINSNLAWYQQKPGQAPRLLIYGAYTRATGIPDRFSGSGSGTEFTLTISSLQSEDFAVYYCQEFIMWPPWTFGLGTQVEIK
# B3: 46H7 Fab (Fab, V domains shown)
# VH: EVQLLESGGGMVQPGGSLRLSCAVSGFTFSRYAMSWVRQAPGKGLEWVSEMRGSSGSTYYADSVKGRFTISRDNSKNTLYLQMNSLRVEDTAIYYCAKEFSSNSLFDYWGQGTLVTVSS
# VL: B2 VL with I29V, Q42R, Y52S, D60A, E90Q, I92Y, M93N, L101Q, Q104K
# B4: 61G5 Fab (Fab, V domains shown)
# VH: QVQLVQSGAEVKKPGASVKVSCKASGYTFTSYDINWVRQATGQGLEWMGWMNPNSGNSGSVKKFRDRVTMTRNTSISTAYMELSSLRSEDTAVYYCVRLIGYSSAWKWSFQHWGQGTLVTVSS
# VL: DIQMTQSPSSLSASVGDRVTITCQASRDISKYLNWYQQKPGKAPKLQIYDASNLETGVPSRFSGSGSGTDFTFTISSLQPEDIATYYCQHYDNIPITFGQGTRLEIK
# B5: 66B8 Fab (Fab, V domains shown)
# VH: QVQLVQSGAEVKKPGASVKVSCKASGYTFTGYYMHWVRQAPGQGLEWMGWFKPNSGVTNYAQKFQGRVTMSRDTSISTAYMELSSLRSDDTAVYYCARAGYSTSWKDWFDPWGQGTLVTVSS
# VL: DIQMTQFPSSVSASVGDRVTITCRASQGISRWLAWYQQKQGKAPKLLIYMVSSLQSGVPSRFSGSGSGTDFTLTISSLQPEDFATYYCQQSHNFPITFGQGTRLDIK
# B6: 64D7 Fab (Fab, V domains shown)
# VH: QVQLVQSGAEVKKPGASVKVSCKASGYTFTSYDINWVRQATGQGLEWMGWMNPNRGNTGYVKKFQGRVTMTRNTSISTAYMELSSLRSEDTAVYYCARRRAVYRSSWEWYFDLWGRGTLVTVSS
# VL: DTQMTQSPSSLSASEGDRVTITCQASQDIFNDLNWYQEKPGKAPKLLIYHASNLETGVPSRFSGSGSGTDYTFTISSLQPEDIATYYCQQYGNLPLTFGGGTKVEIK
# B7: 44A5 Fab (Fab, V domains shown)
# VH: EVQLLESGGGLVQPGGSLRLSCAASGFTFSTYAMNWVRQAPGKGLEWVSTVSGSGRPTYYADSVKGRFTISRDNSKNTLYLQMNSLRAEDTAVYYCAKAYYSNYLFDYWGQGTLVTVSS
# VL: EIVMTQSPAILSVSPGERATLSCRASQSVSSNLAWYQQKPGQAPRLLIYGASTRATGVPARFSGGGSGTDFTLTISSLQSEDFAVYYCQHCKTWPPLTFGGGTKVDLK
# B8: 49A2 Fab (Fab, V domains shown)
# VH: EVQLVESGGGLVQPGGSLRLSCAASGFTFSSNWMSWVRQAPGKGLDWMASMKQDGSEIYYVDSVKGRFTISRDNAKNSLHLQMNSLRAEDTAVYYCVRGGWRFESWGQGALVTVSS
# VL: EIVMTQSPATLSVSPGERATLSCRASQSVSSNLAWYQQKSGQAPRLLIYGASIRATGIPARVSGSGSGTEFTFTISSLQSEDFAVYYCQQYKNWPLTLGGGTKVEIK
# B9: 57C10 Fab (Fab, V domains shown)
# VH: QVQLVQSGAEVKKPGASVKVSCKASGYTFTRYDINWVRQATGQGLEWMGWLNPNSGNTGQTQKFRGRVTMTRNTSINTAYMELSSLRSEDTAVYYCARGGYTSAWRWYFDLWGRGTLVTVSS
# VL: DIQMTQSPSSLSASVGDRVTITCQASQDINNHLNWYQQKPGKAPKLLIYDVSNLETGVPSSFSGSGCGTDFTFTISSLQPEDIATYFCQQYDKLPLTFGGGTKVEIE
# B10: 34D1 Fab (Fab, V domains shown)
# VH: B9 VH with L51M, T58S, Q60S, T61V, N77H, T78I, A104S
# VL: B4 VL with T20N, R27Q, S30R, Y32H, K45N, Q47L, S52A, D70A, D92A, I94L
# B11: 63F8 Fab (Fab, V domains shown)
# VH: QVQLVQSGAEVKKPGASVKVSCKASGYTFTSYDINWVRQATGQGLEWMGRMNPKSGNAGYVQNFRGRVTMTRNTSISTAYMELSSLRSEDTAVYYCARGGRTSIWSFVFDYWGQGTLVTVSS
# VL: B9 VL with N30S, N31K, V51T, S61R, C67S, F87N, E107K
# B12: 61B12 Fab (Fab, V domains shown)
# VH: QVQLVQSGAEVTKPGASVKVSCKASGYTFTRYDINWVRQATGQGLEWMGWMNPNSGNSGSVQKFRGRVTMTRNTSITTVYMELSSLRSDDTAVYYCARGGISSSWHWAFDIWGQGTMVTVSS
# VL: B9 VL with D50G, V51A, S52Y, N53T, S61R, C67S, F87Y, E107K
# B13: 50A12 Fab (Fab, V domains shown)
# VH: EVQLVESGGGLVQPGGSLRLSCAASGFTFSSYWMSWVRQAPGKGLEWVANIKQDGSEEYYVDSVKGRFTISRDNAKNSLFLQMNSLRAEDTAVYYCARDYGDSFDYWGQGTLVTVSS
# VL: DIQMTQSPSSVSASVGDRVTITCRASQGIRKWLAWYQQKPGRAPKLLIYAASRLQSGVPSRFSGSGSGTDFTLTISSLRPEDFATYYCLQAHGFPWTFGQGTKVEIK
# Biological target: T1, recombinant soluble human TREM-1-His protein (human, UniProt Q9NP99 21-205, biotinylated in the bead assays of Tables 6 and 7 (sites not given))
# T1 construct: also called b-huTREM-1-His; biotinylated human TREM-1-His antigen; not shown: His tag
# Assay: BLI (Octet HTX), antibody captured on anti-human Fc sensor, soluble human TREM-1-His as analyte, 1:1 model
# Protocol: Briefly, TREM-1 hybridoma supernatants normalized to 10 μg/mL in DMEM null media were prepared by diluting 1:10 in OCTET® assay buffer (10 mM Tris, 0.1% Triton X-100, 150 mM NaCl, 1 mM CaCl₂), 0.1 mg/mL BSA, at pH 7.6) to a final test concentration of 1 μg/mL. Amine reactive second-generation AR2G Biosensors (Molecular Devices) were pre-incubated in 200 μL nanopore water for a minimum of 10 minutes at room temperature before use. The AR2G Biosensors were then activated for 5 minutes in a solution of 20 mM EDC (1-Ethyl-3-[3-dimethylaminopropyl]carbodiimide hydrochloride) (ForteBio) pre-mixed with 10 mM NHS (N-hydroxysulfosuccinimide) (ForteBio) in nanopore water. An in-house generated mouse anti-human Fc monoclonal antibody was coupled to the AR2G Biosensors at 10 μg/mL in 10 mM sodium acetate buffer at pH 5 for 5 minutes, quenched with 1M ethanolamine at pH 8.5 for 5 minutes, and then used to capture antibody from solution. The TREM-1 test antibodies were loaded onto the Biosensors for 5 minutes, and baseline measurements were taken for 1 minute. […] The association of recombinant human TREM-1 with the antibody-loaded sensor was measured for 5 minutes, followed by dissociation in OCTET® buffer for 10 minutes. Biosensors were then regenerated with 10 mM glycine at pH 1.7, reloaded with the same TREM-1 antibodies on the same sensors for 5 minutes, and the same method was used to measure association and dissociation of cyno TREM-1-His protein. Data was referenced using a 0 nM analyte reference sensor. Kinetic analysis was performed using a 1:1 Langmuir model with mass transfer in Genedata Screener software.
row,Kd,Binder
1,0.57 nM,B1

# Biological target: T2, human TREM-1 (human, UniProt Q9NP99 21-234)
# Assay: cell-based or functional assay
"Fab IC50-pSYK Assay (Trial 1), PGLYRP1/PGN-induced SYK phosphorylation","Fab IC50-pSYK Assay (Trial 2), PGLYRP1/PGN-induced SYK phosphorylation",Binder
467 pM,374 pM,B2
43.3 pM,117 pM,B3
387 pM,186 pM,B4
4660 pM,–,B5
229 pM,70 pM,B6
189 pM,325 pM,B7
1180 pM,787 pM,B8
273 pM,583 pM,B9
314 pM,309 pM,B10
45.2 pM,38 pM,B11
112 pM,569 pM,B12
2850 pM,–,B13

# Biological target: T2, human TREM-1
# Assay: flow cytometry competition, competitor PGLYRP1-His/PGN on HEK293 cells with human TREM1/DAP12, antibody 2.5 ug/mL
row,Receptor-ligand % inhibition,Binder
1,101%,B1

# Positions count from the first letter of the chain named.
